Measurements reported in US8663646B2, “P53 peptide vaccine” (priority 2007, dated 2014).

Experiments:
HLA-A*0201 = HLA-A*0201 (Homo sapiens, UniProt P04439, D140Y/D185E/D98H/E176V/E277Q/G131W/G231S/I119V/I121R/I166T/I218V/L300P/L318F/N151K/N90K/P208A/P217A/Q86G/Q94H/R138H/R169H/T345S); details: binding capacity previously determined, cited from earlier work
HLA-A*1101 = target: T1, HLA-A*1101 (Homo sapiens, UniProt P04439, A114D/D185E/E176A/F33Y/L180Q/S129P/T187R); experiment: Competition based cellular binding assay, HLA-A*1101 (B-cell line BVR); details: for Peptide Binding Affinity: HLA-A*1101, IC50 category
T1 construct: B-cell lines used are: CAA (A*0101), EKR (A*0301), BVR (A*1101), VIJF (A*2401); endogenous in cells; host or cells: B-cell line BVR

HLA-A*0301 = target: T2, HLA-A*0301 (Homo sapiens, UniProt P04439); experiment: Competition based cellular binding assay, HLA-A*0301 (B-cell line EKR); details: for Peptide Binding Affinity: HLA-A*0301, IC50 category
T2 construct: B-cell lines used are: CAA (A*0101), EKR (A*0301), BVR (A*1101), VIJF (A*2401); endogenous in cells; host or cells: B-cell line EKR

CC(C)C[C@H](NC(=O)[C@@H](NC(=O)[C@H](CC(N)=O)NC(=O)[C@H](CC(N)=O)NC(=O)[C@H](CCC(=O)O)NC(=O)[C@@H]1CCCN1C(=O)[C@H](CC(C)C)NC(=O)[C@H](CC(C)C)NC(=O)[C@@H](N)CCCCN)C(C)C)C(=O)O [p53 24-32]
IC50 (HLA-A*0201; read-out: Peptide Binding Affinity): 5 to 15 µM

CC(C)C[C@H](NC(=O)[C@H](C)NC(=O)[C@@H]1CCCN1C(=O)[C@H](CO)NC(=O)[C@H](Cc1ccc(O)cc1)NC(=O)[C@@H](NC(=O)[C@@H](N)CS)[C@@H](C)O)C(=O)N[C@@H](CC(N)=O)C(=O)N[C@@H](CCCCN)C(=O)O [p53 124-132]
Peptide Binding Affinity (HLA-A*1101): high | Peptide Binding Affinity (HLA-A*0301): high

CC[C@H](C)[C@H](NC(=O)[C@H](C)NC(=O)[C@H](CCSC)NC(=O)[C@H](C)NC(=O)[C@H](CCCNC(=N)N)NC(=O)[C@@H](NC(=O)[C@@H](N)CCCNC(=N)N)C(C)C)C(=O)N[C@@H](Cc1ccc(O)cc1)C(=O)N[C@@H](CCCCN)C(=O)O [p53 156-164]
HLA binding Affinity (Table 5) (HLA-A*1101; HLA type A11): high | Peptide Binding Affinity (HLA-A*1101): high | HLA binding Affinity (Table 5) (HLA-A*0301; HLA type A3): high | Peptide Binding Affinity (HLA-A*0301): high

CC[C@H](C)[C@H](NC(=O)[C@H](CC(C)C)NC(=O)[C@H](Cc1c[nH]cn1)NC(=O)[C@H](CCC(N)=O)NC(=O)[C@@H]1CCCN1C(=O)[C@@H]1CCCN1C(=O)[C@H](C)NC(=O)[C@H](CC(C)C)NC(=O)CN)C(=O)N[C@@H](CCCNC(=N)N)C(=O)N[C@H](C(=O)O)C(C)C [p53 187-197]
Peptide Binding Affinity (HLA-A*0201): high

ALYVDSLFFL [PRA 300-309]
Peptide Binding Affinity (HLA-A*0201): high
